Laboratory results as given in ChEMBL document CHEMBL4428055 (J Med Chem, 2016).
Activity calls are given as the source filed them. The calls are words filed in the database; no cut-off is given here.

Legend:
[1] = target: T1, Aldo-keto reductase family 1 member C3 (Homo sapiens) (UniProt P42330); conditions: LNCaP, 30 uM
T1 sequence (whole entry): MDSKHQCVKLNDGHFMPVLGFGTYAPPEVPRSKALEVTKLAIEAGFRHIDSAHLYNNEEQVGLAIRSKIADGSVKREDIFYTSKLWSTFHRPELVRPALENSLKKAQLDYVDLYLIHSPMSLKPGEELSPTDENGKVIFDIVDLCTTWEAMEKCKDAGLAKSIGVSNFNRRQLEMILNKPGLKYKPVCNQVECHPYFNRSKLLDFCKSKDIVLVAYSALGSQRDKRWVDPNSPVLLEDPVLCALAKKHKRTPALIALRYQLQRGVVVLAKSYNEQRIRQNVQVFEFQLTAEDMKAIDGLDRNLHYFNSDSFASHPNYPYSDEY

[2] = target: T1, Aldo-keto reductase family 1 member C3 (Homo sapiens); conditions: LNCaP, 30 uM; remark: listed apart in the source
[3] = target: T1, Aldo-keto reductase family 1 member C3 (Homo sapiens); conditions: LNCaP, 30 uM; remark: listed apart in the source
[4] = target: T2, Aldo-keto reductase family 1 member C3 (Homo sapiens, UniProt P42330); experiment: Inhibition of human recombinant AKR1C3 using S-tetralol as substrate assessed as reduction in NADP+-dependent S-tetralol oxidation preincubated for 10 mins followed by protein addition by fluorometric assay
T2 sequence (P42330 whole entry): T1 sequence (whole entry)

## CC[C@@H](C(=O)O)c1ccc2cc(OC)ccc2c1
[1]
  inhibition: Active
[2]
  inhibition: Active
[3]
  inhibition: Active

## COc1ccc2cc([C@@H](C)C(=O)O)ccc2c1
[4]
  IC50: 50 nM
